Experiment: reverse phase assay of main API peak (integrity of the molecule)
Type: physicochemical
Conditions: A5Su formulation, API at 20 mg/mL
Protocol: In order to identify stable formulations of PEG-CFZ, various formulations were made wherein the desired pegylated carfilzomib compound (API) was dissolve in experimental compositions of excipients, and the stability and quantity of the intact, non-degraded API was monitored and measured in the frozen state (−20° C. or below). Formulations of API was also prepared and tested to determine the ability of each exemplary formulation to provide adequate stability in the liquid state to be suitable for clinical and commercial administration. Here, these formulations were stored at least 8 hours at room temperature and 2 days at a temperatures ranging from 2-8° C. All formulations that were tested contained desired API compounds at 1 mg/mL concentrations.
For each formulation, the stability of the API was tested using three observable and/or measurable characteristics, as follows: • 1. Integrity of the molecule, as assessed by the reverse phase assay; • 2. Clarity of the solution, via visual assessment; and • 3. Concentration of the API material in the solution, as assessed by material recovery after centrifugation Results
FIG. 2 illustrates results of similar measurements taken with the same formulations prepared with exemplary pegylated carfilzomib compound no. 39 instead of example 26. API material recovery is similarly shown in red and percent main API peak at To and T3, as measured by the same reverse phase assay, after storage at 25° C. for 3 days, is shown. […]
The percent recovery of the exemplary pegylated carfilomib compounds were measured as a function of reverse phase assays for the peak(s) representing the active molecule/compound. The percent was determined based on the area under the curve, as described below. The reverse phase assays were conducted as follows—CFZ samples were analyzed by reverse phase using a Phenomenex Gemini C18, 50×4.6 mm, 3 micron particle size column with a 47 minute HPLC method. […] Main peak percentage was determined by taking Area Under the Curve integration. […]

## 4-(4-Acetoxy-3-((1-PEG3K-1H-1,2,3-triazol-4-yl)methoxy)benzyl)-4-((4S,7S,10S,13S)-10-benzyl-7-isobutyl-15-methyl-13-((R)-2-methyloxirane-2-carbonyl)-2,5,8,11-tetraoxo-4-phenethyl-3,6,9,12-tetraazahexadecyl)morpholin-4-ium Chloride [Example 34]
Storage at 4° C.
  main API peak loss, 4° C. Loss per 1 week: 0.0
Storage at 25° C.
  main API peak loss, 25° C. loss per 8 hr: 0.0
Storage at −70° C.
  main API peak loss, −70° C. loss per 2 weeks: 0.4

From US11241502B2, “Stable compositions of pegylated carfilzomib compounds” (AMGEN INC., priority 2017, dated 2022)
